In patent US20060079453A1, “Hla binding peptides and their uses” (priority 2002, published 2006):
Read-outs that look alike come from different tables or passages of the source.

By UniProt entry, the sequences of proteins in these tests, tags left out. Residues count along the entry.
UniProt P79483, 30-266: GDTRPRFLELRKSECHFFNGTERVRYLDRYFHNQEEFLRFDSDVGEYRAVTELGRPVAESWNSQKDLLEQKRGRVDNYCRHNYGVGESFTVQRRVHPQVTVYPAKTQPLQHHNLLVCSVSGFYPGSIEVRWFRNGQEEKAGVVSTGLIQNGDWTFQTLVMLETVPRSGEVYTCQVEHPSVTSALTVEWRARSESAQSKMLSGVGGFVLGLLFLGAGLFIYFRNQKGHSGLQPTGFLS
UniProt Q30154, 30-266: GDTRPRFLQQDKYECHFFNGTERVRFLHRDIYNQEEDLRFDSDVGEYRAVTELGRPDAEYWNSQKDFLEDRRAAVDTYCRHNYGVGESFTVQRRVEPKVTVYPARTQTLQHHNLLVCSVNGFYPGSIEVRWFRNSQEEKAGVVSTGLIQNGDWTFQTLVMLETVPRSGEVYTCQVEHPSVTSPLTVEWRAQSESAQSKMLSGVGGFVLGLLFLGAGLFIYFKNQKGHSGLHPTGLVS

Key:
[1] = biological target: HLA-DR DRB1*1302 (DR13) (Homo sapiens, UniProt P01903+P01911, A100E/A169T/K41T/L162R/M171V/P40S/Q125H/Q178H/Q39Y/Q99D/R42S/S66N/T262R/V115G/W38E/Y61H); test: biochemical; assay type: binding
[2] = biological target: HLA-DR DRB4*0101 (DR53) (Homo sapiens, UniProt P01903+P13762, G164S); test: biochemical; assay type: binding
[3] = biological target: HLA-DR DRB1*1101 (DR11) (Homo sapiens, UniProt P01903+P01911, A100R/A169T/A87E/I96F/K41T/L162R/M171V/P40S/Q125H/Q178H/Q39Y/Q99D/R42S/S66Y/T262R/V115G/W38E); test: biochemical; assay type: binding
[4] = biological target: HLA-DR DRB3*0101 (DR52) (Homo sapiens, UniProt P01903+P79483); test: biochemical; assay type: binding
[5] = biological target: HLA-DR DRB1*0701 (DR7) (Homo sapiens, UniProt P01903+P01911, A100R/A102G/A103Q/D57E/D86V/E43K/F76Y/K127E/L162R/M171V/P40G/Q125H/Q99D/R33Q/R42Y/R54Q/S133A/S66F/T210M/V115G/Y107V/Y59L/Y89S); test: biochemical; assay type: binding; conditions: DRB1 *0701
[6] = biological target: HLA-DR DRB1*0101 (DR1) (Homo sapiens, UniProt P01903+P01911, A100R/D57E/F55L/F60I/F76Y/I96L/L162R/M171V/P40L/Q125E/R42F/V115G/Y59C); test: biochemical; assay type: binding
[7] = biological target: HLA-DR DRB1*0401 (DR4) (Homo sapiens, UniProt P01903+P01911, A100K/A169T/F76Y/I96L/K127E/L162R/M171V/N62H/P40V/Q125Y/R42H/S133A/S149N/S66Y/V115G/V209L/W38E); test: biochemical; assay type: binding
[8] = biological target: HLA-DR DRB1*0802 (DR8) (Homo sapiens, UniProt P01903+P01911, A100R/A103L/A169T/F76Y/H45Y/I96F/K41T/L162R/M171V/P40S/Q125H/Q178H/Q39Y/Q99D/R218S/R42G/S66Y/V115G/W38E); test: biochemical; assay type: binding
[9] = biological target: HLA-DR DRB5*0101 (DR51) (Homo sapiens, UniProt P01903+Q30154); test: biochemical; assay type: binding
[10] = biological target: HLA-DR DRB1*1501 (DR15) (Homo sapiens, UniProt P01903+P01911); test: biochemical; assay type: binding
[11] = biological target: HLA-DR DRB1*0301 (DR3) (Homo sapiens, UniProt P01903+P01911, A100K/A102G/A103R/A169T/F55Y/I96L/K41T/L162R/M171V/P40S/Q125H/Q178H/Q39Y/R42S/S66N/T106N/T262R/W38E/Y61H); test: biochemical; assay type: binding
[12] = biological target: HLA-DR DRB1*0901 (DR9) (Homo sapiens, UniProt P01903+P01911, A100R/A103E/D57H/D86V/F55Y/F60I/F76Y/I96F/K127E/L162R/M171V/P40D/Q125H/Q99R/R33Q/R42F/S133A/S66N/T210M/V115G/W38K/Y107V/Y59G/Y89S); test: biochemical; assay type: binding
[13] = biological target: HLA-A*2902 (Homo sapiens, UniProt P04439, A270S/D101N/D185E/E176V/E277Q/E87Q/F33T/G231S/H175R/I121M/I218V/I322F/K168Q/L300P/L318F/M331R/P208A/P217A/Q86L/T323A/T345S/V100A/V358M); test: MHC molecular binding / Capture assay, IC50: A*2902
[14] = biological target: HLA-A*3002 (Homo sapiens, UniProt P04439, D101N/D140H/D185E/E176R/F33S/G80R/H175R/K168Q/Q94H/R138E/R41S/V100E); assay type: binding
[15] = read-out: Binding affinity to A*2902 (expressed as an IC50)
[16] = read-out: Binding affinity to A*3002 (expressed as an IC50)
[17] = read-out: A*2902 binding affinity (IC50)
[18] = read-out: A*3002 binding affinity (IC50)

CC[C@H](C)[C@H](NC(=O)[C@H](CO)NC(=O)[C@@H](NC(=O)[C@@H](NC(=O)[C@@H](NC(=O)[C@H](CCC(N)=O)NC(=O)[C@@H](N)CCC(=O)O)[C@@H](C)O)[C@@H](C)O)[C@@H](C)O)C(=O)N[C@H](C(=O)N[C@@H](CO)C(=O)N[C@@H](CC(C)C)C(=O)N[C@@H](Cc1ccc(O)cc1)C(=O)N[C@@H](CCC(N)=O)C(=O)N[C@@H](CC(C)C)C(=O)N[C@@H](CCC(=O)O)C(=O)N[C@@H](CC(N)=O)C(=O)O)[C@@H](C)O
IC50 ([1]; DRBI *1302): 16900 nM

CC[C@H](C)[C@H](NC(=O)[C@H](CC(=O)O)NC(=O)[C@H](Cc1ccccc1)NC(=O)[C@H](CC(N)=O)NC(=O)[C@H](CCCNC(=N)N)NC(=O)[C@H](CCCNC(=N)N)NC(=O)[C@H](CC(=O)O)NC(=O)[C@H](CCCCN)NC(=O)[C@H](CC(C)C)NC(=O)[C@@H](NC(=O)[C@H](Cc1ccc(O)cc1)NC(=O)[C@H](CCC(=O)O)NC(=O)[C@H](CC(C)C)NC(=O)[C@H](CCCNC(=N)N)NC(=O)CN)[C@@H](C)O)C(=O)O
IC50 ([1]; DRBI *1302): 1470 nM
IC50 ([2]; DRB4 *0101): 21400 nM

CC[C@H](C)[C@H](NC(=O)[C@H](CS)NC(=O)[C@H](Cc1c[nH]cn1)NC(=O)[C@H](C)NC(=O)[C@H](C)NC(=O)[C@@H](NC(=O)[C@H](CC(C)C)NC(=O)[C@@H](NC(=O)[C@H](Cc1c[nH]c2ccccc12)NC(=O)[C@H](CCC(N)=O)NC(=O)[C@@H]1CCCN1C(=O)[C@@H](N)Cc1c[nH]cn1)C(C)C)[C@@H](C)O)C(=O)N[C@@H](CCCNC(=N)N)C(=O)N[C@@H](CC(N)=O)C(=O)N[C@@H](CCCCN)C(=O)O
IC50 ([1]; DRBI *1302): 1170 nM
IC50 ([3]; DRB1 *1101): 785 nM
IC50 [4]: 1320 nM

CSCC[C@H](NC(=O)[C@H](CCC(N)=O)NC(=O)[C@H](CC(C)C)NC(=O)[C@H](Cc1ccccc1)NC(=O)[C@H](CC(C)C)NC(=O)[C@@H](NC(=O)[C@H](Cc1c[nH]cn1)NC(=O)[C@H](CC(N)=O)NC(=O)[C@@H](N)CCCCN)C(C)C)C(=O)N[C@@H](CCSC)C(=O)N[C@@H](CC(N)=O)C(=O)N[C@H](C(=O)N[C@@H](CC(N)=O)C(=O)N[C@@H](CC(C)C)C(=O)N[C@@H](CCC(N)=O)C(=O)O)C(C)C
IC50 [5]: 757 nM
IC50 ([6]; DRB1 *0101): 12 nM
IC50 ([7]; DRB1 *0401): 32 nM
IC50 [8]: > 120000 nM
IC50 ([1]; DRBI *1302): 36 nM
IC50 ([9]; DRB5 *0101): > 7210 nM
IC50 ([2]; DRB4 *0101): 22 nM

CC(C)C[C@H](NC(=O)[C@H](C)NC(=O)CNC(=O)[C@H](C)NC(=O)[C@H](CS)NC(=O)[C@H](CC(C)C)NC(=O)[C@H](Cc1c[nH]c2ccccc12)NC(=O)[C@H](CCCNC(=N)N)NC(=O)[C@@H]1CCCN1)C(=O)N[C@H](C(=O)N[C@@H](CC(C)C)C(=O)N[C@@H](C)C(=O)NCC(=O)NCC(=O)N[C@@H](Cc1ccccc1)C(=O)O)C(C)C
IC50 ([10]; DRBI *1501): 15200 nM

CC[C@H](C)[C@H](NC(=O)CNC(=O)[C@H](CC(C)C)NC(=O)CNC(=O)[C@H](CCCCN)NC(=O)[C@H](CCCCN)NC(=O)[C@H](CC(C)C)NC(=O)[C@H](Cc1ccccc1)NC(=O)[C@H](CS)NC(=O)[C@H](CC(C)C)NC(=O)[C@@H](N)CCC(N)=O)C(=O)N[C@@H](CO)C(=O)N[C@@H](Cc1ccc(O)cc1)C(=O)NCC(=O)N[C@@H](CCCNC(=N)N)C(=O)O
IC50 [10]: 4210 nM

C[C@H](NC(=O)[C@H](CC(=O)O)NC(=O)[C@H](CC(=O)O)NC(=O)[C@H](CC(N)=O)NC(=O)[C@H](Cc1c[nH]cn1)NC(=O)[C@H](CO)NC(=O)[C@H](CC(N)=O)NC(=O)[C@@H](NC(=O)[C@H](CC(=O)O)NC(=O)[C@H](Cc1ccccc1)NC(=O)[C@H](CCCCN)NC(=O)[C@H](CO)NC(=O)[C@H](Cc1ccc(O)cc1)NC(=O)[C@@H](NC(=O)[C@@H](N)CCC(N)=O)[C@@H](C)O)[C@@H](C)O)C(=O)O
IC50 [5]: 54600 nM
IC50 [8]: 7730 nM
IC50 ([1]; DRBI *1302): > 17900 nM
IC50 [11]: > 55900 nM
IC50 ([3]; DRB1 *1101): > 15400 nM
IC50 ([12]; DRB1 *0901): 31300 nM
IC50 ([2]; DRB4 *0101): > 138000 nM

CC[C@H](C)[C@H](NC(=O)[C@H](CCC(N)=O)NC(=O)CNC(=O)[C@@H](NC(=O)[C@H](CCCNC(=N)N)NC(=O)[C@@H]1CCCN1C(=O)[C@H](CO)NC(=O)CNC(=O)[C@H](CC(=O)O)NC(=O)[C@H](CCC(=O)O)NC(=O)[C@H](CC(C)C)NC(=O)[C@@H](N)CCCNC(=N)N)[C@@H](C)O)C(=O)N[C@@H](Cc1ccccc1)C(=O)N[C@@H](CCCCN)C(=O)N[C@@H](CCC(N)=O)C(=O)O
IC50 [5]: 35100 nM
IC50 [8]: > 33300 nM
IC50 ([1]; DRBI *1302): > 17900 nM
IC50 [11]: 76700 nM
IC50 ([12]; DRB1 *0901): > 59500 nM

CC[C@H](C)[C@H](NC(=O)[C@H](CCC(=O)O)NC(=O)[C@H](CCC(=O)O)NC(=O)[C@@H]1CCCN1C(=O)[C@@H](NC(=O)[C@H](CC(=O)O)NC(=O)[C@H](Cc1ccccc1)NC(=O)[C@H](CC(N)=O)NC(=O)[C@@H](N)CCCNC(=N)N)[C@@H](C)CC)C(=O)N[C@@H](CCCCN)C(=O)N[C@@H](CCC(N)=O)C(=O)N[C@@H](CC(C)C)C(=O)N[C@@H](CCC(N)=O)C(=O)N[C@@H](CCC(N)=O)C(=O)N[C@@H](Cc1ccccc1)C(=O)O
IC50 ([1]; DRBI *1302): > 15400 nM

CC[C@H](C)[C@H](NC(=O)[C@H](CO)NC(=O)[C@H](CCC(=O)O)NC(=O)[C@H](CC(C)C)NC(=O)[C@@H](NC(=O)[C@H](C)NC(=O)CNC(=O)[C@H](Cc1ccc(O)cc1)NC(=O)[C@@H](NC(=O)[C@H](CO)NC(=O)[C@H](Cc1ccc(O)cc1)NC(=O)[C@H](CC(=O)O)NC(=O)[C@H](Cc1ccc(O)cc1)NC(=O)[C@@H](N)Cc1ccc(O)cc1)C(C)C)[C@@H](C)O)C(=O)N[C@H](C(=O)O)[C@@H](C)O
IC50 ([1]; DRBI *1302): 8920 nM

ALQAQKEAISPPDAA
IC50 ([1]; read-out: DRBI *1302): > 12400 nM

AYKDLCIVY
IC50 [13, 15]: 5200 nM
IC50 [14, 16]: 29 nM

CIVYRDCIAYAACHK
IC50 ([1]; read-out: DRBI *1302): 12900 nM
IC50 ([2]; read-out: DRB4 *0101): 2580 nM

EFAFKDLFVVYRDS
IC50 ([6]; read-out: DRB1 *0101): 8940 nM
IC50 ([12]; read-out: DRB1 *0901): 1880 nM

HQAISPRTLNSPAIF
IC50 ([1]; read-out: DRBI *1302): 1040 nM

KPAVYTKVVHYRKWI
IC50 ([1]; read-out: DRBI *1302): 1950 nM
IC50 ([2]; read-out: DRB4 *0101): 4580 nM

MTNLAALFPPEGVSI
IC50 ([1]; read-out: DRBI *1302): 1310 nM

QKQLLTNHLINTPK
IC50 ([6]; read-out: DRB1 *0101): 675 nM
IC50 ([7]; read-out: DRB1 *0401): 228 nM

RFHMAGITF
IC50 [13, 15]: 635 nM
IC50 [14, 16]: 1.4 nM

RMTSLKINEL
IC50 [13, 17]: 40300 nM
IC50 [13, 15]: 40300 nM
IC50 [14, 18]: 14 nM
IC50 [14, 16]: 14 nM

RYITNIAGHY
IC50 [13, 17]: 138 nM
IC50 [14, 18]: 0.93 nM

RYRNIAGHY
IC50 [13, 15]: 138 nM
IC50 [14, 16]: 0.93 nM

SFFMNRFYI
IC50 [13, 15]: 200 nM
IC50 [14, 16]: 1020 nM

TFCCKCDSTF
IC50 [14, 18]: 1170 nM

VYREQNPE
IC50 [13, 17]: 10000 nM
IC50 [14, 18]: 66000 nM

YLVTGERGFFYTKPT
IC50 ([1]; read-out: DRBI *1302): 17900 nM
IC50 ([9]; read-out: DRB5 *0101): 11900 nM
IC50 ([3]; read-out: DRB1 *1101): 9340 nM
